# Laboratory results: PubChem BioAssay AID833 (The Scripps Research Institute Molecular Screening Center, 2007)
# Protein sequences, listed by entry. Tags and fused reporters are not part of them.
# UniProt O08726, whole entry: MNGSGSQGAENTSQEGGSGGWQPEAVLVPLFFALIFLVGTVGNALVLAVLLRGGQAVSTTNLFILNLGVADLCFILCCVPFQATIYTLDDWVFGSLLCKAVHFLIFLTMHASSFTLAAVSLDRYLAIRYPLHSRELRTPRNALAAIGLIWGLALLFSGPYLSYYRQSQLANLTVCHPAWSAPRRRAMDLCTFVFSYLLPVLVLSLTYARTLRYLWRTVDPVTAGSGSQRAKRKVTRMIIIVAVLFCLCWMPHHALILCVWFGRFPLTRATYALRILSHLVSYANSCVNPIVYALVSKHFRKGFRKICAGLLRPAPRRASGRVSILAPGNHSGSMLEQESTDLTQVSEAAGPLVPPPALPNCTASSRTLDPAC
# The entries are a selection whose mix differs from that of the whole data set. Active and inactive are the calls of the source. Rule as the data show it: active = activation above about 15%; inactive = the rest.
# Target: Galanin receptor type 2 (Rattus norvegicus) (UniProt O08726)
# Assay: agonists of rat galanin receptor 2 (GALR2) (AID 833)
# Settings: cell-based GALR2 agonist screen; at 10 µM; active compounds read high
row,SMILES,activation
1,Cc1ccccc1NC1CC(C)(C)NC(C)(C)C1,inactive: -5.15%
